{"sequences": {"note": "Amino acid sequences for entries named in this document (tags omitted).", "UniProt Q60492, whole entry, looked up": "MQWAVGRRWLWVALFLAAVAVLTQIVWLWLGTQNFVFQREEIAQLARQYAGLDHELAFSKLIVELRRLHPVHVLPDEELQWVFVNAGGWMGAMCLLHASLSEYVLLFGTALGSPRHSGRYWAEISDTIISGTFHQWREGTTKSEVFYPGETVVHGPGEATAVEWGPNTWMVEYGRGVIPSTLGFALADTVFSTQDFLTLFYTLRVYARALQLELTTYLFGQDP"}, "source": "ChEMBL document CHEMBL4765270", "about": "“Piperidine propionamide as a scaffold for potent sigma-1 receptor antagonists and mu opioid receptor agonists for treating neuropathic pain” (Eur J Med Chem, 2020)", "target": "Sigma non-opioid intracellular receptor 1 (Cavia porcellus, UniProt Q60492)", "assay": "Displacement of [3H]-(+)-pnetazocin from sigma1 receptor in guinea pig brain membrane incubated for 120 mins by scintillation counting method", "note": "pKi: −log10 of the molar value.", "data": [{"smiles": "C[C@@H]1[C@@H]2Cc3ccc(O)cc3[C@]1(C)CCN2CCc1ccccc1", "values": [{"measurement": "pKi", "result": 7.21}]}, {"smiles": "C[C@H]1[C@H]2Cc3ccc(O)cc3[C@@]1(C)CCN2CCc1ccccc1", "values": [{"measurement": "pKi", "result": 8.41}]}]}
